From patent publication US20250296968A1

Target: endogenous mouse alpha-synuclein in wild-type mouse brain (mouse) (UniProt O55042)
Experiment: cell-based or functional assay

seed activity in vivo (anti-pS129-positive aggregates in mouse brain 3 months after inoculation) (times the WT aggregate): 6
Substance: K43&45R alpha-synuclein aggregate (from UniProt P37840 1-140)
